Laboratory results as given in patent US20040121965A1, “Method of treating resistant tumors” (Wyeth Holdings Corporation, priority 2002, published 2004).

How the values were obtained:
[1] = tested on: KB-8-5 (MDR1+); test: Cell survival assay (SRB), KB-8-5 (MDR1+)
[2] = tested on: KB-V1 (MDR1++); test: Cell survival assay (SRB), KB-V1 (MDR1++)

Substance: (2E,4S)-2,5-dimethyl4-(methyl{(2S)-2-[(N,β,1-trimethyl-L-phenylalanyl)amino]butanoyl}amino)hex-2-enoic Acid Trifluoroacetic Acid [Example 99]
- Ratio KB85/KB [1]: 1.4
- Ratio KBV1/KB [2]: 22.0

Substance: (2E,4S)4-[{(2R)-2-cyclohexyl-2-[(N,β,1-trimethyl-L-phenylalanyl)amino]ethanoyl}(methyl)amino]-2,5-dimethylhex-2-enoic Acid Trifluoroacetic Acid [Example 98]
- Ratio KB85/KB [1]: 1.4
- Ratio KBV1/KB [2]: 22.2
